Biological target: PTHR1GFP (Homo sapiens, UniProt Q03431)
Experiment: cAMP response (GloSensor luminescence), HEK293 stably expressing PTHR1GFP (GPG10)
Format: cell-based
Conditions: peak GloSensor luminescence; mean ± SD, ≥3 independent experiments
Description: These assays were performed as previously described. Briefly, HEK-293-derived cell lines that stably express the Glosensor cAMP reporter (Promega Corp.)[30] and PTHR1, a PTHR1 variant, or PTHR2 were seeded into white sided 96-well plates (50,000 cells/well) and grown to confluency. Confluent monolayers of cells were pre-incubated with CO2 independent medium containing D-luciferin (0.5 mM) at 37 °C until a stable baseline level of luminescence was established (20 min). Varying concentrations of ligands were then added, and the time course of luminescence response was recorded using BioTek plate reader. The maximal luminescence response (observed 12–16 min after ligand addition) was used to construct dose-response data sets (Table 1, Supplementary Fig. 6).
Data were processed using Microsoft Excel and GraphPad Prism 6. Data from cAMP dose–response assays were analyzed using a sigmoidal dose–response model with variable slope. Data sets were statistically compared by using Student’s t test (two-tailed) assuming unequal variances for the two sets.
Supplementary Figure 1. […]
GFP variant known as pHluorin2 engrafted into the receptor(ref. 19, main text). c) HEK293 cells stably expressing PTHR1-GFP were treated with varied doses of the indicated peptides or conjugates and activation was assessed by measuring luminescence from a cAMP-activated luciferase variant. […]

By UniProt entry, the sequences of proteins in these tests, tags left out. Residues count along the entry.
UniProt Q03431, 27-593 limits assumed: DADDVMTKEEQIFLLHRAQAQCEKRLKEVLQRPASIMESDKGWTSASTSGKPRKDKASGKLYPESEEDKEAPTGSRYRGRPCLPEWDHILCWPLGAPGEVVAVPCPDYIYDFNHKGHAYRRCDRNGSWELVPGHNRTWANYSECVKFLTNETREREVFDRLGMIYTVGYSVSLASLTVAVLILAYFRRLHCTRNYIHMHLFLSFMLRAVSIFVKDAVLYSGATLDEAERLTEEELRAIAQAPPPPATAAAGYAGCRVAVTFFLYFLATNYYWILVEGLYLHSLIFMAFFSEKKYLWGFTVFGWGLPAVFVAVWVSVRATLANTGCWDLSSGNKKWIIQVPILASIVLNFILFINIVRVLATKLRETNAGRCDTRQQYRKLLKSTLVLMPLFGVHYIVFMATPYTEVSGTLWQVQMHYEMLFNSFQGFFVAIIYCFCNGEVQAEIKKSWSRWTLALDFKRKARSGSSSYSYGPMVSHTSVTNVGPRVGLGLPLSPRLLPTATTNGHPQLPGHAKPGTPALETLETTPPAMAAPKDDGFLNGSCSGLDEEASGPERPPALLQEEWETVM

## CC[C@H](C)[C@H](NC(=O)[C@H](CCC(=O)O)NC(=O)C(C)(C)NC(=O)[C@@H](NC(=O)[C@H](C)N)C(C)C)C(=O)N[C@@H](CCC(N)=O)C(=O)N[C@@H](CC(C)C)C(=O)N[C@@H](CCSC)C(=O)N[C@@H](Cc1c[nH]cn1)C(=O)N[C@@H](CS)C(N)=O
  EC50, cAMP induction: Inactive at 10,000 nM

— publication PMC7190724, “Improved GPCR ligands from nanobody tethering” (Nature Communications, 2020)
